## Water solubility values, as collected for the OPERA models

Values as listed in the OPERA 2.9 repository of K. Mansouri.

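OPERA's authors assembled the values from existing databases and did not measure them anew. A listed value is a point estimate from one report or more. Method, purity and exact conditions of the single measurements are not given. A value may pool stereoisomers or salt forms, and the file does not say which form was measured. Some upstream entries may be estimates or bounds without being marked so.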

Water solubility is log10 of mol/L, nominally at 25 °C; higher is more soluble.

SMILES	log solubility (log10 mol/L)
CCOP(=O)(C(=O)c1c(C)cc(C)cc1C)c1ccccc1 (stereo not given)	-3.956
CCNc1nc(NCC)nc(SC)n1	-2.68
CNC(=O)Oc1cccc2c1OC(C)(C)C2=O	-1.719
CCOC(=O)CCSP(=S)(OC(C)C)OC(C)C	-4.275
CCN(CCCl)c1ccc(C=O)cc1	-3.033
O=C([O-])c1cc(Oc2ccc(C(F)(F)F)cc2Cl)ccc1[N+](=O)[O-].[Na+]	0.21
CC(C)(C)CCO	-0.71
CCCCCCCCCC(=O)OOC(=O)CCCCCCCCC	-6.45
Cc1ccc(-c2c(Cl)nc(C#N)n2S(=O)(=O)N(C)C)cc1	-6.45
CC(C)=CCN1CC[C@]2(C)c3cc(O)ccc3C[C@H]1[C@H]2C (racemic)	-3.801
Nc1c(Cl)c(Cl)c(Cl)c(Cl)c1Cl	-6.101
Cc1ccc(Cl)cc1C	-3.718
CN(CC[C@H](N)CC(O)=N[C@H]1C=C[C@H](n2ccc(=N)nc2O)O[C@@H]1C(=O)O)C(=N)N	-4.15
COc1ccc(C)cc1N	-1.899
O=C([O-])c1c(Cl)c(Cl)c(Cl)c(Cl)c1-c1c2cc(Br)c(=O)c(Br)c-2oc2c(Br)c([O-])c(Br)cc12.O=C([O-])c1c(Cl)c(Cl)c(Cl)c(Cl)c1-c1c2cc(Br)c(=O)c(Br)c-2oc2c(Br)c([O-])c(Br)cc12.O=C([O-])c1c(Cl)c(Cl)c(Cl)c(Cl)c1-c1c2cc(Br)c(=O)c(Br)c-2oc2c(Br)c([O-])c(Br)cc12.[Al+3].[Al+3]	-6.49
CCC1(c2ccc(N)cc2)CCC(=O)NC1=O (stereo not given)	-2.797
CNC(=O)Oc1cccc2c1OC(C)(C)C2O (stereo not given)	-1.58
CC(C)(C)C(=O)O[C@H]1CC[C@]2(C)[C@H]3CC[C@]4(C)C(=O)[C@H]5C[C@H]5[C@H]4[C@@H]3[C@H](Br)[C@H]3O[C@]32C1	-5.505
Brc1ccc(Oc2ccc(Br)cc2Br)c(Br)c1	-7.513
C=C(Br)CC1(C(C)CC)C(=O)NC(=O)NC1=O (stereo not given)	-2.65
CCOCCN(C(=O)CCl)C(=C(C)C)c1ccccc1	-2.87
FC(F)C(F)(F)F	-1.453
CC(C)(C)CC(C)(C)c1cc(-n2nc3ccccc3n2)c(O)c(C(C)(C)c2ccccc2)c1	-6.806
C/C=C\[C@@H]1[C@@H](C(=O)OCc2c(F)c(F)c(COC)c(F)c2F)C1(C)C	-5.73
C[C@@]12CCCCC[C@@H](Cc3ccc(O)cc31)[C@@H]2N	-4.244
COc1cc(OC)nc(NC(=O)[N-]S(=O)(=O)c2ncccc2OCC(F)(F)F)n1.[Na+]	-1.25
Nc1ccc(/N=N/c2ccccc2)cc1	-3.79
NP(N)(=O)Nc1ccccc1[N+](=O)[O-]	-2.19
Brc1c(Br)c(Br)c(Oc2c(Br)c(Br)c(Br)c(Br)c2Br)c(Br)c1Br	-9.979
CC1CC(CC2CCC(N)C(C)C2)CCC1N (stereo not given)	-1.821
c1ccc(Nc2ccc(Nc3ccccc3)cc2)cc1	-6.239
CC(C)CCCCCCCOP(=S)([S-])OCCCCCCCC(C)C.CC(C)CCCCCCCOP(=S)([S-])OCCCCCCCC(C)C.[Zn+2]	-7.431
C1CN1c1nc(N2CC2)nc(N2CC2)n1	0.292
F[B-](F)(F)[NH+]1CCCCC1	-3.583
O=S(=O)(c1ccccc1)c1ccccc1	-4.193
Cc1c([N+](=O)[O-])cc(N)cc1[N+](=O)[O-]	-2.2
C[C@]12CC[C@H](O)CC1=C[C@@H](O)[C@H]1[C@@H]3[C@@H](O)CC(=O)[C@@]3(C)CC[C@@H]12	-3.033
O=P1(NCCCl)OCCCN1CCCl (stereo not given)	-1.241
COc1cc(Oc2ccc(Cl)cc2Cl)ccc1[N+](=O)[O-]	-6.02
C=CC(=O)OCC(CC)(COC(=O)C=C)COC(=O)C=C	-2.773
O=c1oc2ccccc2c(O)c1C1CC(c2ccc(-c3ccc(Br)cc3)cc2)Cc2ccccc21 (stereo not given)	-8.14
ClCCCCCCCl	-3.848
NC(=O)O[C@@H](Cn1ncnn1)c1ccccc1Cl	-2.197
Cc1cc(=O)n(-c2ccccc2)n1-c1ccccc1	-3.097

Excerpt, the opening 3 entries:

| SMILES | log solubility (log10 mol/L) |
|---|---|
| CCOP(=O)(C(=O)c1c(C)cc(C)cc1C)c1ccccc1 (stereo not given) | -3.956 |
| CCNc1nc(NCC)nc(SC)n1 | -2.68 |
| CNC(=O)Oc1cccc2c1OC(C)(C)C2=O | -1.719 |